What is called IC50 is the point on the concentration scale where inhibition reaches its midpoint.

The chains behind the UniProt entries cited, without tags or fusion partners. Residues count along the entry.
UniProt P06276, 29-602: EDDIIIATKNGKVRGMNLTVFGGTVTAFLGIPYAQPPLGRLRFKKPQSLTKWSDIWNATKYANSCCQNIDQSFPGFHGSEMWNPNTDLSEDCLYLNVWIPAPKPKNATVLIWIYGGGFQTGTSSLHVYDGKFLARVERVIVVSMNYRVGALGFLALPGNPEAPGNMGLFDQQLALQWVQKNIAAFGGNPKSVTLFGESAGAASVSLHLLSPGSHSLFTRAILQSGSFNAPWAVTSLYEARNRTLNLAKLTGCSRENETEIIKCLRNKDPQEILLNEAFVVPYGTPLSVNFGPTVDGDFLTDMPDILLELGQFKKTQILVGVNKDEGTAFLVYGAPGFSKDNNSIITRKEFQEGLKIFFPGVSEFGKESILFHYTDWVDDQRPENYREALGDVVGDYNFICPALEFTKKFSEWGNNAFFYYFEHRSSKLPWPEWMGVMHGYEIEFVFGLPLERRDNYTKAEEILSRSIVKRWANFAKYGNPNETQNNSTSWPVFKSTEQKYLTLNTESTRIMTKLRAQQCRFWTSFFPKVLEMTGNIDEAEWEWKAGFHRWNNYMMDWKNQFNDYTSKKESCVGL
UniProt P06276, 29-602 F255A/S315G/A356W/Y360A: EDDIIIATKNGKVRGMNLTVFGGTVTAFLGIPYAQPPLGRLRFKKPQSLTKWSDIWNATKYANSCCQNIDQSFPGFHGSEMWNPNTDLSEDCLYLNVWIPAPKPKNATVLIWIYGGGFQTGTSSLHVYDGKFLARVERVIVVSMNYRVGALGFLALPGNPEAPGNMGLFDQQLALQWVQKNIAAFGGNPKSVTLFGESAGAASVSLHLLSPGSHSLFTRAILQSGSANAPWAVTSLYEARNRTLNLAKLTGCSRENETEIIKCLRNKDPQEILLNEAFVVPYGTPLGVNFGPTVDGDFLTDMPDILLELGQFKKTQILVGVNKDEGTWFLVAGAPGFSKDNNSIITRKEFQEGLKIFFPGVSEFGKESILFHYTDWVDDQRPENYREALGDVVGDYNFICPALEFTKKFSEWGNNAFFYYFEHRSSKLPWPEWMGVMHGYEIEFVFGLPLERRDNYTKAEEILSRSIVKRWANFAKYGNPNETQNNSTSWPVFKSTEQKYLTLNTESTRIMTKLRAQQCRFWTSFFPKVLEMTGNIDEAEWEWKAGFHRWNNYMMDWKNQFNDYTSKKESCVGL
UniProt P06276, 29-602 A227S/S315G/A356W/Y360G: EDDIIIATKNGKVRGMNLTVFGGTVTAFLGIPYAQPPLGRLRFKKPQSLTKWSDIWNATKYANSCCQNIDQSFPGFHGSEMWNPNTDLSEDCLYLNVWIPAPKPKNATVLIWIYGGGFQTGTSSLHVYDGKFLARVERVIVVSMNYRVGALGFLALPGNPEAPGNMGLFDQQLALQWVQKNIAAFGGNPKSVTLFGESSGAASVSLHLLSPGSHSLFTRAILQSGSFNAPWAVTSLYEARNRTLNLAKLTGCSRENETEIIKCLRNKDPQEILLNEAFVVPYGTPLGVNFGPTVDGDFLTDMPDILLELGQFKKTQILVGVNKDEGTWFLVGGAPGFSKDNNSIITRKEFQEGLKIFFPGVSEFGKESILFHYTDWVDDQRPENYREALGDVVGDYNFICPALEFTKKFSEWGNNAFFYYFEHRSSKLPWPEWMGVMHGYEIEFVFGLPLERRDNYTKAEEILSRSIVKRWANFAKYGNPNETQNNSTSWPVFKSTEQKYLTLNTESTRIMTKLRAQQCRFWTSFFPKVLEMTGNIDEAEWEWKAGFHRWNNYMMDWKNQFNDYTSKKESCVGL
UniProt P06276, 29-602 A227S/F255A/S315G/A356W/Y360G: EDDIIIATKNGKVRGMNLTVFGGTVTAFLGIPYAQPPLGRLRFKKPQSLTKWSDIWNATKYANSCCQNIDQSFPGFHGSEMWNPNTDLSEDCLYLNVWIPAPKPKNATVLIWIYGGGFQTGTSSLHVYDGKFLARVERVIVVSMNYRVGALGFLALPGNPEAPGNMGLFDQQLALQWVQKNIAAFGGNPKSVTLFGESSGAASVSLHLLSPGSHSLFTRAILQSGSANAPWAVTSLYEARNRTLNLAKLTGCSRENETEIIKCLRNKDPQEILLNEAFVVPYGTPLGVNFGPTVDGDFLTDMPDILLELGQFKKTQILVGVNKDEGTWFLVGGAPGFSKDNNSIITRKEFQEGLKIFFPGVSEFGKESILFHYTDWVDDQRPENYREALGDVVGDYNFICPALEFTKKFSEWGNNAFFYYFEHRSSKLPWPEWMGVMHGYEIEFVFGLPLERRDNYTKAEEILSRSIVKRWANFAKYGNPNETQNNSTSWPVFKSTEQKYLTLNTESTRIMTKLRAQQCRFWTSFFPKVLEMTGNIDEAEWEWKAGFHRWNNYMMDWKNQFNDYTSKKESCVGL
UniProt P06276, 29-602 F255A/S315G/A356W/Y360G: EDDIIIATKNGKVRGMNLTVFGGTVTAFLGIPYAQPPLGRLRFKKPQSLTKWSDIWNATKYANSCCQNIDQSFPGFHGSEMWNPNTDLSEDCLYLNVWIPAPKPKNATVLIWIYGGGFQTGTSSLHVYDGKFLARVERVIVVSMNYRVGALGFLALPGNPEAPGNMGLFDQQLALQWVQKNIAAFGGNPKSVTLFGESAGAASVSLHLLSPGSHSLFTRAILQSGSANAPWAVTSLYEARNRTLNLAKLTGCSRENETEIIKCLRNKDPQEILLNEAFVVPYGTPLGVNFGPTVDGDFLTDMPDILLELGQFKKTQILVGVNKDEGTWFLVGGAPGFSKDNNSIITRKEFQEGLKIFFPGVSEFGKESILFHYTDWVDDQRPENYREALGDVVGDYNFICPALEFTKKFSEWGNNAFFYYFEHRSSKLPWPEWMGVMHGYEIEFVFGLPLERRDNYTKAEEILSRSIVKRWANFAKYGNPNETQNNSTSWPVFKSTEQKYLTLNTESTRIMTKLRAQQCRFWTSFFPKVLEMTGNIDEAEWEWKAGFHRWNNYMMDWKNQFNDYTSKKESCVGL

From PMC5585256 (Scientific Reports, 2017) come the findings set out here.

Holding throughout (type): biochemical
The target of test [1] is T1, WT hBChE (human plasma-derived butyrylcholinesterase) (Homo sapiens, UniProt P06276).
T1 construct: we first compared WT human plasma-derived (hBChE) to pBChE; from tissue; host or cells: human plasma
The test can be described thus: Inhibition of BTC hydrolysis activity of WT hBChE. The method, then: (§1) To this end, BTC hydrolysis was analyzed following a 30-minute incubation with the inhibitors.
(§2) The four inhibitors were purchased from Sigma (St Louis, MO).
(§3) Preparations of BChE and variants thereof were incubated in 96-well plate format with indicated concentrations of the inhibitors for 30 min at room temperature followed by activity measurements based on modified Ellman assay using 1 mM BTC as the substrate. IC50 values were determined by non-linear regression (GraphPad Prism) fit according to Equation (4).

In test [2] the target is T2, WT pBChE (plant-derived human butyrylcholinesterase) (Homo sapiens, UniProt P06276).
T2 construct: barley alpha-amylase signal peptide (N); made in house; host or cells: Nicotiana benthamiana (transient, MagnICON/TMV vector, Agrobacterium infiltration)
Kind of test: Inhibition of BTC hydrolysis activity of WT pBChE. On the procedure: as §1, §2, §3

Test [3] addresses T3, pBChEV2 (F227A/S287G/A328W/Y332A) (Homo sapiens, UniProt P06276, A356W/F255A/S315G/Y360A).
T3 construct: hexahistidine (C); barley alpha-amylase signal peptide (N); made in house; host or cells: Nicotiana benthamiana (transient, MagnICON/TMV vector)
Kind of test: Inhibition of BTC hydrolysis activity of pBChEV2. The method, then: as §1, §2, §3

Test [4] has as its target T4, pBChEV3 (A199S/S287G/A328W/Y332G) (Homo sapiens, UniProt P06276, A227S/A356W/S315G/Y360G).
T4 construct: hexahistidine (C); barley alpha-amylase signal peptide (N); made in house; host or cells: Nicotiana benthamiana (transient, MagnICON/TMV vector)
Kind of test: Inhibition of BTC hydrolysis activity of pBChEV3. The method, then:
as §1, §2, §3

The target in test [5] is T5, pBChEV4 (A199S/F227A/S287G/A328W/Y332G) (Homo sapiens, UniProt P06276, A227S/A356W/F255A/S315G/Y360G).
T5 construct: hexahistidine (C); barley alpha-amylase signal peptide (N); made in house; host or cells: Nicotiana benthamiana (transient, MagnICON/TMV vector)
The test can be described thus: Inhibition of BTC hydrolysis activity of pBChEV4. On the procedure: as §1, §2, §3

The target of test [6] is T6, pBChEV5 (F227A/S287G/A328W/Y332G) (Homo sapiens, UniProt P06276, A356W/F255A/S315G/Y360G).
T6 construct: hexahistidine (C); barley alpha-amylase signal peptide (N); made in house; host or cells: Nicotiana benthamiana (transient, MagnICON/TMV vector)
Kind of test: Inhibition of BTC hydrolysis activity of pBChEV5. The method, then:
as §1, §2, §3

[7] abbreviates: log IC50 ± SEM, 30 min incubation, 1 mM BTC, enzyme ~5 mU.

Like-named read-outs stand apart in the source and are kept apart here. Marks after values point to notes of the source that are not given here.

As for `CC(C)NP(=O)(NC(C)C)OP(=O)(NC(C)C)NC(C)C` [Iso-OMPA, N-[bis(propan-2-ylamino)phosphoryloxy-(propan-2-ylamino)phosphoryl]propan-2-amine], the IC50 in test [1] (read-out: Log IC50 (converted)) was 22400 nM; in test [2] (read-out: Log IC50 (converted)) it was 17000 nM; in test [3] (read-out: Log IC50 (converted)), 355 nM; in test [4] (read-out: Log IC50 (converted)) it was 35500 nM; in test [5] (read-out: Log IC50 (converted)), 13500 nM; in test [6] (read-out: Log IC50 (converted)) it was 407 nM.
`C=CC[N+](C)(C)c1ccc(CCC(=O)CCc2ccc([N+](C)(C)CC=C)cc2)cc1.[Br-].[Br-]` [BW284c51, [4-[5-[4-[dimethyl(prop-2-enyl)azaniumyl]phenyl]-3-oxopentyl]phenyl]-dimethyl-prop-2-enylazanium;dibromide]: the “Fold increase in sensitivity relative to WT pBChE” value in test [1] (WT hBChE vs WT pBChE) was “(2)^**** fold”; in test [2] (WT pBChE (reference)) it was “(1) fold”; in test [3] (pBChEV2 vs WT pBChE) it was “(2)^* fold”; in test [6] (pBChEV5 vs WT pBChE), “(1)^* fold”. The “Log IC50” value in test [1] (setting [7]) is reported as −3.86 ± 0.03; in test [2] (setting [7]), −3.55 ± 0.05; in test [3] (setting [7]), −3.82 ± 0.11; in test [4] (setting [7]), −4.16 ± 0.10; in test [5] (setting [7]), −4.62 ± 0.09; in test [6] (setting [7]), −3.31 ± 0.11.
Regarding `CCOP(=O)(OCC)Oc1ccc([N+](=O)[O-])cc1` [Paraoxon, diethyl (4-nitrophenyl) phosphate], the IC50 was 9.12 nM in test [1]; 7.76 nM in test [2]; 0.204 nM in test [3]; 2.24 nM in test [4]; 1.29 nM in test [5]; 0.17 nM in test [6].
